# Data reported in patent US5516525A, “Vitamin D derivative feed compositions and methods of use” (University of Georgia Research Foundation, Inc., priority 1994, dated 1996).
# System: phytate phosphorus utilization
# Experiment: calcium, phosphorus and phytate phosphorus retention
# Settings: in words, Example 1
row,SMILES,utilization of phytate phosphorus
1,"C=C1/C(=C\C=C2/CCC[C@]3(C)[C@@H]([C@H](C)CCCC(C)C)CC[C@@H]23)C[C@@H](O)C[C@@H]1O [1-OHD3, 1-hydroxycholecalciferol]",did not appear to increase phytate phosphorus utilization in the absence of phytase
2,"C=C1CC[C@H](O)C/C1=C/C=C1\CCC[C@]2(C)[C@@H]([C@H](C)CCC(O)C(C)(C)O)CC[C@@H]12 (stereo partly drawn) [24,25-(OH)2 D3, 24,25-dihydroxycholecalciferol, reference compound]",did not appear to increase phytate phosphorus utilization in the absence of phytase
3,"O.O=P([O-])([O-])O.[Na+].[Na+] [P, Na2 HPO4 H2 O]",decreases phytate phosphorus utilization
